Data on two variants can be found in publication PMC6326798.

The labels stand for the following.
B1: GFP-hsCENP-H WT [human] / MYC-hsCENP-I [human] (parent)
chain 1: MSPQKRVKNVQAQNRTSQGSSSFQTTLSAWKVKQDPSNSKNISKHGQNNPVGDYEHADDQAEEDALQMAVGYFEKGPIKASQNKDKTLEKHLKTVENVAWKNGLASEEIDILLNIALSGKFGNAVNTRILKCMIPATVISEDSVVKAVSWLCVGKCSGSTKVLFYRWLVAMFDFIDRKEQINLLYGFFFASLQDDALCPYVCHLLYLLTKKENVKPFRVRKLLDLQAKMGMQPHLQALLSLYKFFAPALISVSLPVRKKIYFKNSENLWKTALLAVKQRNRGPSPEPLKLMLGPANVRPLKRKWNSLSVIPVLNSSSYTKECGKKEMSLSDCLNRSGSFPLEQLQSFPQLLQNIHCLELPSQMGSVLNNSLLLHYINCVRDEPVLLRFYYWLSQTLQEECIWYKVNNYEHGKEFTNFLDTIIRAECFLQEGFYSCEAFLYKSLPLWDGLCCRSQFLQLVSWIPFSSFSEVKPLLFDHLAQLFFTSTIYFKCSVLQSLKELLQNWLLWLSMDIHMKPVTNSPLETTLGGSMNSVSKLIHYVGWLSTTAMRLESNNTFLLHFILDFYEKVCDIYINYNLPLVVLFPPGIFYSALLSLDTSILNQLCFIMHRYRKNLTAAKKNELVQKTKSEFNFSSKTYQEFNHYLTSMVGCLWTSKPFGKGIYIDPEILEKTGVAEYKNSLNVVHHPSFLSYAVSFLLQESPEERTVNVSSIRGKKWSWYLDYLFSQGLQGLKLFIRSSVHHSSIPRAEGINCNNQY
chain 2: MEEQPQMQDADEPADSGGEGRAGGPPQVAGAQAACSEDRMTLLLRLRAQTKQQLLEYKSMVDASEEKTPEQIMQEKQIEAKIEDLENEIEEVKVAFEIKKLALDRMRLSTALKKNLEKISRQSSVLMDNMKHLLELNKLIMKSQQESWDLEEKLLDIRKKRLQLKQASESKLLEIQTEKNKQKIDLDSMENSERIKIIRQNLQMEIKITTVIQHVFQNLILGSKVNWAEDPALKEIVLQLEKNVDMM

In this test the parent is B1. Description: co-immunoprecipitation (anti-GFP IP, western blot quantification). The settings on record: with MYC-hsCENP-I [human]; HeLa Tet-On cells co-transfected with GFP-hsCENP-H, non-tagged hsCENP-K and MYC-hsCENP-I; parent: 1; read off a plot.
For the variant chain 2 K234E L238A, the ratio to parent came to 0.66. Regarding chain 2 L219A L233A, the ratio to parent was determined as 0.52.
